Yeast mating assay 2: variants of the scFv Ab-95

Antigen: PDVDLGDISGINAS, a 14-residue peptide of the SARS-CoV-2 spike HR2 region.

Ab-95 is the parent antibody, in scFv form: VH, then the linker GGGGSGGGGSGGGGS, then VL. The heavy chain is unchanged in all variants.
VH: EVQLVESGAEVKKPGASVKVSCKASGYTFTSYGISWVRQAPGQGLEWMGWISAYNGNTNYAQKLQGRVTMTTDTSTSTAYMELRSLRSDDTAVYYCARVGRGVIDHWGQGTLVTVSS
VL: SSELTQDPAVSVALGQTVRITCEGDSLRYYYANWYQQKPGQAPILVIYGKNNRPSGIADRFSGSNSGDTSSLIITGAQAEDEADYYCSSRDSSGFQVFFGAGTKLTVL

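The starting antibody came from a phage panning campaign against this peptide. Variants in AAYL52 differ from the parent at up to three CDR positions; double and triple changes were sampled at random. The scFvs were displayed on barcoded MATa yeast, the peptide on MATalpha yeast. The frequency of each diploid, read from paired DNA barcodes, reflects how well the two displayed proteins bind. A regression on co-assayed BCL2-family reference pairs converts the normalised counts of each replicate to an apparent Kd. Mating was done three times.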

Substitutions are numbered in sequence along the VL above, starting at 1 (not Kabat). Scale: log10 of Kd in nM, estimated from mating counts; low values are strong binders. Averages over replicates are reported, and they cover detected replicates only. A pair that was not seen in that replicate is written "n.d."; this usually means weak binding, but a binder can also be missed. Nonspecific signal, from three strains lacking the peptide, appeared in 28% of pairings of library AAYL52, centred on 3.91 (5% of these signals below 2.90); values are not corrected for it. For each scFv, signals with the empty controls are counted beside the result, with their mean in brackets. In this assay the parent's reference entry averaged 2.31; its copy inside this library read 2.25.

| changes | log10 Kd, replicates | mean log10 Kd (nM) | signal with controls |
|---|---|---|---|
| S92C S93T G94D | 2.60 / 1.75 / 1.75 | 2.03 | 1/9 (3.75) |
| L27D S88I S92F | n.d. / n.d. / n.d. | n.d. | 4/9 (4.28) |
| Y29I S55T Q96V | n.d. / n.d. / n.d. | n.d. | 5/9 (4.03) |
| S26G L27G Q96G | n.d. / 5.68 / n.d. | 5.68 | 1/9 (5.28) |
| S55E S88E R90A | 3.93 / n.d. / 3.28 | 3.61 | 3/9 (3.31) |
| E23F N52M R53E | 5.23 / 3.23 / n.d. | 4.23 | 2/9 (3.68) |
| D91A F98T | 4.08 / 3.17 / 3.50 | 3.58 | 3/9 (4.13) |
| S89I G94K Q96M | 5.55 / 5.84 / n.d. | 5.70 | 0/9 |
| P54R F95E V97S | 3.70 / 2.41 / 2.57 | 2.89 | 1/9 (4.02) |
| D25M P54D | n.d. / n.d. / n.d. | n.d. | 0/9 |
| E23W Q96V F98Q | 3.50 / n.d. / n.d. | 3.50 | 0/9 |
| N51S S88P S93N | 3.58 / 4.05 / n.d. | 3.81 | 0/9 |
| P54A R90F D91Y | n.d. / n.d. / n.d. | n.d. | 3/9 (3.70) |
| L27E D91R | 5.39 / n.d. / n.d. | 5.39 | 5/9 (4.23) |
| Y30N D91M S93V | 5.29 / n.d. / n.d. | 5.29 | 4/9 (4.27) |
| L27Y R28H K50L | n.d. / n.d. / n.d. | n.d. | 1/9 (4.22) |
| D25F P54L S55T | 3.09 / 5.41 / 2.94 | 3.81 | 2/9 (3.67) |
| D25H R28I F95Y | 2.60 / 2.75 / 2.51 | 2.62 | 5/9 (4.24) |
| P54H F95Q | n.d. / 2.75 / 2.19 | 2.47 | 0/9 |
| A32N G49W | n.d. / n.d. / n.d. | n.d. | 1/9 (3.49) |
| N33A N51I R53E | 3.88 / 5.28 / n.d. | 4.58 | 2/9 (3.58) |
| G24F P54W G94H | 5.59 / n.d. / n.d. | 5.59 | 3/9 (4.04) |
| R90G D91K S93T | 2.08 / 2.13 / 1.77 | 1.99 | 2/9 (3.95) |
| K50D R53T S55I | 3.25 / 3.07 / 2.24 | 2.85 | 2/9 (4.77) |
| Y31A F98Y | 1.23 / 1.34 / 0.78 | 1.12 | 3/9 (3.83) |
| R90D F95E V97R | n.d. / n.d. / n.d. | n.d. | 2/9 (4.10) |
| L27G Y30F Y31L | n.d. / 1.95 / n.d. | 1.95 | 1/9 (4.92) |
| A32P S88P S89A | n.d. / n.d. / n.d. | n.d. | 1/9 (4.17) |
| D25L S26I G49M | 4.72 / n.d. / n.d. | 4.72 | 1/9 (4.96) |
| G49R N52P S92H | 3.91 / n.d. / n.d. | 3.91 | 3/9 (4.10) |
| D25K R53T G94L | 2.50 / 2.62 / 2.59 | 2.57 | 4/9 (3.70) |
| S93T Q96R V97W | 1.98 / 2.17 / 1.41 | 1.86 | 1/9 (3.21) |
| E23D A32Y R90L | n.d. / n.d. / n.d. | n.d. | 0/9 |
| E23N Y31L S93V | n.d. / 4.05 / 3.95 | 4.00 | 1/9 (3.81) |
| L27C G49F R53E | n.d. / n.d. / n.d. | n.d. | 2/9 (3.71) |
| E23D D25M L27S | 4.64 / n.d. / 3.04 | 3.84 | 1/9 (4.26) |
| R53W S89E S93R | n.d. / n.d. / n.d. | n.d. | 3/9 (3.88) |
| K50Q S55D Q96T | 1.48 / 1.19 / 1.62 | 1.43 | 0/9 |
| L27V R28E S55T | 3.36 / n.d. / n.d. | 3.36 | 2/9 (4.13) |
| A32Q G49I V97T | 4.91 / n.d. / n.d. | 4.91 | 1/9 (3.89) |
| K50G S92Q | 1.49 / 1.55 / 1.07 | 1.37 | 3/9 (4.27) |
| Y30W S89R G94N | 2.89 / 2.83 / 3.17 | 2.96 | 3/9 (3.57) |
| G24L Q96K | n.d. / n.d. / n.d. | n.d. | 1/9 (4.01) |
| K50G N51T V97W | 3.04 / 2.90 / 3.91 | 3.28 | 2/9 (3.35) |
| N33F N51V V97M | n.d. / 3.19 / n.d. | 3.19 | 3/9 (3.98) |
| S88C D91C S92N | 3.04 / 2.60 / 2.43 | 2.69 | 0/9 |
| P54N S89F D91A | n.d. / 5.96 / n.d. | 5.96 | 2/9 (4.69) |
| Y31M | 2.13 / 2.03 / 1.74 | 1.97 | 3/9 (4.12) |
| S26P A32G G49A | n.d. / n.d. / n.d. | n.d. | 1/9 (3.30) |
| E23N Y30W S88W | 3.37 / 3.19 / 4.15 | 3.57 | 3/9 (4.27) |

From the list, the first 4 with no signal in any replicate:

changes,"log10 Kd, replicates",mean log10 Kd (nM),signal with controls
L27D S88I S92F,n.d. / n.d. / n.d.,n.d.,4/9 (4.28)
Y29I S55T Q96V,n.d. / n.d. / n.d.,n.d.,5/9 (4.03)
D25M P54D,n.d. / n.d. / n.d.,n.d.,0/9
P54A R90F D91Y,n.d. / n.d. / n.d.,n.d.,3/9 (3.70)

Source: Engelhart et al. 2022 (doi:10.1038/s41597-022-01779-4), MIT Lincoln Laboratory and A-Alpha Bio; data file from the FLAb repository.